# Test results reported in US11904015B2, “Vaccine compositions and methods of use” (PDS BIOTECHNOLOGY CORPORATION, priority 2012, dated 2024).
# Several values for one entry are separate records, joined by “and”; a condition that tells them apart may be missing. Equal values may be shown once.
# System: HPV-16 E7 peptide (aa43-57)
# Conditions: individual animals
# [1] = s.c. vaccination days 1, 21, 42, 0.086 mg R-DOTAP
smiles,measurement,setting,value
"CCCCCCCC/C=C\CCCCCCCC(=O)OCC(C[N+](C)(C)C)OC(=O)CCCCCCC/C=C\CCCCCCCC (stereo not shown) [R-DOTAP, 1,2-dioleoyl-3-trimethylammonium propane]",Pretest IgG (E743-57),before vaccination,<2 Log Titers
same,Pretest IgM (E743-57),before vaccination,<2 Log Titers
same,Day 57 IgG (E743-57),[1],<2 Log Titers
same,Day 57 IgM (E743-57),[1],<2 Log Titers (6×) and 2 Log Titers (2×)
